According to PubChem BioAssay (NCI):
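Five concentrations, 48 hours, 96-well plates. The concentration for 50% growth inhibition is given as GI50. TGI: total growth inhibition.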

How the values were obtained:
Assay in all cases: NCI tumour cell line growth inhibition, 48 h
[1] = tested on: 786-0 renal
[2] = tested on: A549 NSCLC
[3] = tested on: ACHN renal
[4] = tested on: CAKI-1 renal
[5] = tested on: CCRF-CEM leukemia
[6] = tested on: COLO 205 colon
[7] = tested on: DU-145 prostate
[8] = tested on: EKVX NSCLC
[9] = tested on: HCT-116 colon
[10] = tested on: HCT-15 colon
[11] = tested on: HL-60(TB) leukemia
[12] = tested on: HOP-62 NSCLC
[13] = tested on: HOP-92 NSCLC
[14] = tested on: HS 578T breast
[15] = tested on: HT29 colon
[16] = tested on: IGROV1 ovarian
[17] = tested on: K-562 leukemia
[18] = tested on: KM12 colon
[19] = tested on: LOX IMVI melanoma
[20] = tested on: M14 melanoma
[21] = tested on: MALME-3M melanoma
[22] = tested on: MCF7 breast
[23] = tested on: MDA-MB-231 breast
[24] = tested on: MDA-MB-435
[25] = tested on: MOLT-4 leukemia
[26] = tested on: NCI-H226 lung
[27] = tested on: NCI-H23 lung
[28] = tested on: NCI-H322M lung
[29] = tested on: NCI-H460 lung
[30] = tested on: NCI-H522 lung
[31] = tested on: NCI/ADR-RES ovarian
[32] = tested on: OVCAR-3 ovarian
[33] = tested on: OVCAR-4 ovarian
[34] = tested on: OVCAR-5 ovarian
[35] = tested on: OVCAR-8 ovarian
[36] = tested on: PC-3 prostate
[37] = tested on: RPMI-8226 leukemia
[38] = tested on: RXF 393 renal
[39] = tested on: SF-268 CNS
[40] = tested on: SF-295 CNS
[41] = tested on: SF-539 CNS
[42] = tested on: SK-MEL-2 melanoma
[43] = tested on: SK-MEL-28 melanoma
[44] = tested on: SK-MEL-5 melanoma
[45] = tested on: SK-OV-3 ovarian
[46] = tested on: SN12C renal
[47] = tested on: SNB-19 CNS
[48] = tested on: SNB-75 CNS
[49] = tested on: SR leukemia
[50] = tested on: SW-620 colon
[51] = tested on: T-47D breast
[52] = tested on: TK-10 renal
[53] = tested on: U251 CNS
[54] = tested on: UACC-257 melanoma
[55] = tested on: UACC-62 melanoma
[56] = tested on: UO-31 renal
[57] = tested on: A498 renal
[58] = tested on: HCC-2998 colon

## CCOP(=O)(NC(N)=O)OCC
[1]
  GI50: > 100000 nM
  TGI: > 100000 nM
[2]
  GI50: > 100000 nM
  TGI: > 100000 nM
[3]
  GI50: > 100000 nM
  TGI: > 100000 nM
[4]
  GI50: > 100000 nM
  TGI: > 100000 nM
[5]
  GI50: > 100000 nM
  TGI: > 100000 nM
[6]
  GI50: > 100000 nM
  TGI: > 100000 nM
[7]
  GI50: > 100000 nM
  TGI: > 100000 nM
[8]
  GI50: > 100000 nM
  TGI: > 100000 nM
[9]
  GI50: > 100000 nM
  TGI: > 100000 nM
[10]
  GI50: > 100000 nM
  TGI: > 100000 nM
[11]
  GI50: > 100000 nM
  TGI: > 100000 nM
[12]
  GI50: > 100000 nM
  TGI: > 100000 nM
[13]
  GI50: > 100000 nM
  TGI: > 100000 nM
[14]
  GI50: > 100000 nM
  TGI: > 100000 nM
[15]
  GI50: > 100000 nM
  TGI: > 100000 nM
[16]
  GI50: > 100000 nM
  TGI: > 100000 nM
[17]
  GI50: > 100000 nM
  TGI: > 100000 nM
[18]
  GI50: > 100000 nM
  TGI: > 100000 nM
[19]
  GI50: > 100000 nM
  TGI: > 100000 nM
[20]
  GI50: > 100000 nM
  TGI: > 100000 nM
[21]
  GI50: > 100000 nM
  TGI: > 100000 nM
[22]
  GI50: > 100000 nM
  TGI: > 100000 nM
[23]
  GI50: > 100000 nM
  TGI: > 100000 nM
[24]
  GI50: > 100000 nM
  TGI: > 100000 nM
[25]
  GI50: > 100000 nM
  TGI: > 100000 nM
[26]
  GI50: > 100000 nM
  TGI: > 100000 nM
[27]
  GI50: > 100000 nM
  TGI: > 100000 nM
[28]
  GI50: > 100000 nM
  TGI: > 100000 nM
[29]
  GI50: > 100000 nM
  TGI: > 100000 nM
[30]
  GI50: > 100000 nM
  TGI: > 100000 nM
[31]
  GI50: > 100000 nM
  TGI: > 100000 nM
[32]
  GI50: > 100000 nM
  TGI: > 100000 nM
[33]
  GI50: > 100000 nM
  TGI: > 100000 nM
[34]
  GI50: > 100000 nM
  TGI: > 100000 nM
[35]
  GI50: > 100000 nM
  TGI: > 100000 nM
[36]
  GI50: > 100000 nM
  TGI: > 100000 nM
[37]
  GI50: > 100000 nM
  TGI: > 100000 nM
[38]
  GI50: > 100000 nM
  TGI: > 100000 nM
[39]
  GI50: > 100000 nM
  TGI: > 100000 nM
[40]
  GI50: > 100000 nM
  TGI: > 100000 nM
[41]
  GI50: > 100000 nM
  TGI: > 100000 nM
[42]
  GI50: > 100000 nM
  TGI: > 100000 nM
[43]
  GI50: > 100000 nM
  TGI: > 100000 nM
[44]
  GI50: > 100000 nM
  TGI: > 100000 nM
[45]
  GI50: > 100000 nM
  TGI: > 100000 nM
[46]
  GI50: > 100000 nM
  TGI: > 100000 nM
[47]
  GI50: > 100000 nM
  TGI: > 100000 nM
[48]
  GI50: > 100000 nM
  TGI: > 100000 nM
[49]
  GI50: > 100000 nM
  TGI: > 100000 nM
[50]
  GI50: > 100000 nM
  TGI: > 100000 nM
[51]
  GI50: > 100000 nM
  TGI: > 100000 nM
[52]
  GI50: > 100000 nM
  TGI: > 100000 nM
[53]
  GI50: > 100000 nM
  TGI: > 100000 nM
[54]
  GI50: > 100000 nM
  TGI: > 100000 nM
[55]
  GI50: > 100000 nM
  TGI: > 100000 nM
[56]
  GI50: > 100000 nM
  TGI: > 100000 nM

## CCC[As](CCC)SCC(O)CO (stereo not given)
[1]
  GI50: 68.8 nM
  TGI: 203 nM
[57]
  GI50: 302 nM
  TGI: 1020 nM
[2]
  GI50: 628 nM
  TGI: 2530 nM
[3]
  GI50: 57.5 nM
  TGI: 183 nM
[4]
  GI50: 220 nM
  TGI: 455 nM
[5]
  GI50: 53.1 nM
  TGI: > 100000 nM
[6]
  GI50: 173 nM
  TGI: > 100000 nM
[7]
  GI50: 196 nM
  TGI: 397 nM
[8]
  GI50: 619 nM
  TGI: 1560 nM
[58]
  GI50: 381 nM
  TGI: 1070 nM
[9]
  GI50: 167 nM
  TGI: 5030 nM
[10]
  GI50: 22.6 nM
  TGI: 79.9 nM
[11]
  GI50: 82.6 nM
  TGI: 2680 nM
[12]
  GI50: 325 nM
  TGI: 1470 nM
[13]
  GI50: 15.7 nM
  TGI: 51.3 nM
[15]
  GI50: 293 nM
  TGI: > 100000 nM
[16]
  GI50: 40.6 nM
  TGI: > 100000 nM
[17]
  GI50: 45.1 nM
  TGI: 3730 nM
[18]
  GI50: 333 nM
  TGI: 1210 nM
[20]
  GI50: 170 nM
  TGI: 638 nM
[21]
  GI50: 222 nM
  TGI: 531 nM
[23]
  GI50: 169 nM
  TGI: 357 nM
[24]
  GI50: 259 nM
  TGI: 949 nM
[25]
  GI50: 108 nM
  TGI: 5780 nM
[27]
  GI50: 387 nM
  TGI: 5800 nM
[28]
  GI50: 1540 nM
  TGI: 3120 nM
[29]
  GI50: 1440 nM
  TGI: 3460 nM
[30]
  GI50: 24.5 nM
  TGI: 54.1 nM
[31]
  GI50: 219 nM
  TGI: 487 nM
[32]
  GI50: 373 nM
  TGI: > 100000 nM
[33]
  GI50: 206 nM
  TGI: 596 nM
[34]
  GI50: 1390 nM
  TGI: 3290 nM
[36]
  GI50: 132 nM
  TGI: 634 nM
[37]
  GI50: 182 nM
  TGI: 668 nM
[38]
  GI50: 38.9 nM
  TGI: 161 nM
[39]
  GI50: 211 nM
  TGI: 551 nM
[40]
  GI50: 1960 nM
  TGI: 4140 nM
[41]
  GI50: 234 nM
  TGI: 603 nM
[43]
  GI50: 140 nM
  TGI: 437 nM
[45]
  GI50: 319 nM
  TGI: 974 nM
[46]
  GI50: 175 nM
  TGI: 313 nM
[47]
  GI50: 477 nM
  TGI: 2890 nM
[48]
  GI50: 181 nM
  TGI: 651 nM
[49]
  GI50: 3770 nM
  TGI: 7600 nM
[51]
  GI50: 327 nM
  TGI: 20000 nM
[52]
  GI50: 239 nM
  TGI: 601 nM
[54]
  GI50: 167 nM
  TGI: 403 nM
[55]
  GI50: 46.6 nM
  TGI: 291 nM
[56]
  GI50: 52.7 nM
  TGI: 276 nM
